Drawing on ChEMBL document CHEMBL1147504, “Synthesis of methylphenidate analogues and their binding affinities at dopamine and serotonin transport sites” (Bioorg Med Chem Lett, 2004), this text covers IC50 for one compound.

The target in this experiment is Dopamine receptor.

On to `COC(=O)[C@H](c1ccc2ccccc2c1)[C@H]1CCCCN1.Cl` (racemic), for which the half-maximal inhibitory concentration (IC50) was 33.9 nM.
